In patent EP4847612A1, “ALDOHEXOSE-2-EPIMERASE OR MUTANT THEREOF AND USE THEREOF” (dated 2026):

Experiments:
[1] = tested on: Runella slithyformis aldohexose 2-epimerase RsAE (Runsl_4586), wild type, SEQ ID NO: 5; assay: Enzyme kinetics of RsAE converting D-glucose to D-mannose (Lineweaver-Burk, HPLC); conditions: 50 mM phosphate buffer (pH 7.8), 37°C, 60 min, glucose 10 g/L~100 g/L, 0.03 mg enzyme
Method: In a 1 mL reaction system (50 mM phosphate buffer (pH 7.8)), with a test substrate (as shown in Table 1) concentration of 10 g/L, 0.03 mg of RsAE obtained in Example 1 was added, and the reaction was carried out at 37°C for 60 min. After the reaction, the reaction was terminated in a boiling water bath for 10 min. The catalytic solution after termination of the reaction was centrifuged at 13000 rpm for 1 min, and the supernatant was taken to prepare HPLC test samples. High performance liquid chromatography was used to determine the amount of mannose produced in the reaction system, and the production status is shown in Table 1. The chromatographic conditions were as follows: using an Agilent 1260 high-performance liquid chromatograph, equipped with a Phenomenex MARS Mca 5u 300X 7.8 mm column, with a detector temperature of 35°C, column temperature of 80°C, and pure water as the mobile phase; the flow rate was 0.5 ml/min, and the injection volume was 10 µl.
In a 1 mL reaction system (50 mM phosphate buffer (pH 7.8)), with a substrate glucose concentration of 10 g/L~100 g/L, 0.03 mg of RsAE obtained in Example 1 was added respectively, and the reaction was carried out at 37°C for 60 min. After the reaction, the reaction was terminated in a boiling water bath for 10 min. HPLC test sample preparation and high performance liquid chromatography conditions were the same as in Example 2. […]

[2] = tested on: Runella slithyformis aldohexose 2-epimerase RsAE mutant (G354Q+T355E), SEQ ID NO: 8; assay: Enzyme kinetics of RsAE mutant (G354Q+T355E) converting D-glucose to D-mannose (Lineweaver-Burk, HPLC); conditions: 50 mM phosphate buffer (pH 7.8), 37°C, 60 min, glucose 10-100 g/L, 0.03 mg enzyme
Method: In a 1 mL reaction system (50 mM phosphate buffer (pH 7.8), with a substrate glucose concentration of 10 g/L, 0.15 mg of each of the enzymes prepared in Example 5 (RsAE wild type (WT), mutant (W198H), mutant (G354Q), and mutant (G354Q+T355E)) were added respectively, and the reaction was carried out at 37°C for 120 min. After the reaction, the reaction was terminated in a boiling water bath for 10 min. The catalytic solution after termination of the reaction was centrifuged at 13000 rpm for 1 min, and the supernatant was taken to prepare high performance liquid chromatography test samples, and the amount of mannose produced in the reaction system was measured. The chromatographic conditions of high performance liquid chromatography were as follows: using an Agilent 1260 high performance liquid chromatograph, equipped with a Phenomenex MARS Mca 5u 300X 7.8 mm chromatographic column, with a detector temperature 35°C, column temperature 80°C, and pure water the mobile phase; the flow rate was 0.5 mL/min, and the injection volume was 10 µL.
In a 1 mL reaction system (50 mM phosphate buffer (pH 7.8)), with substrate glucose concentrations of 10 g/L, 20 g/L, 40 g/L, 60 g/L, 80 g/L and 100 g/L, respectively, 0.03 mg of the RsAE mutant (G354Q+T355E) prepared in Example 5 was added respectively, and the reaction was carried out at 37°C for 60 min. […]

D-glucose
Kcat [1]: about 5 s^-1 | Kcat [2]: about 10 s^-1
